# Reference: patent US7179495B1 (Universitaetsklinikum Freiburg, priority 1998, dated 2007)
# System: MT450 cells (mammary carcinoma)
# Conditions: rats; daily intratumour injection of 500 μg in 10% DMSO/PBS; day 0 to day 30; FIG. 4
# Protocol: A treatment with the same concentrations of the cytostatic agent taxol was carried out for comparison. Each treatment group consisted of 8 experimental animals; the treatment was carried out blind (blind experiment). 1 million tumour cells were injected into each animal. Intratumour injections were started after 3 weeks. […] The tumour volume was measured planimetrically 8 times, from the start of the tumour injections (day 0) until the conclusion of the treatment (day 30) and recorded as a growth curve (mean value +/− standard deviation) in FIG. 4.
compound,measurement,value
CC(C)=CCC[C@]1(C)[C@@H](CC=C(C)C)CC2(CC=C(C)C)C(=O)C(CC=C(C)C)=C(O)C1(C(=O)C(C)C)C2=O (stereo partly shown) [hyperforin],tumour growth (tumour volume) in vivo,significantly inhibits the growth
